Values quoted from earlier work in article PMC9794608 (Frontiers in Veterinary Science, 2022).

Tested on: dogs
Details: in approximation with the dose and schedule tested; cited from earlier work

CC(=O)Nc1cccc(-n2c(=O)n(C3CC3)c(=O)c3c(Nc4ccc(I)cc4F)n(C)c(=O)c(C)c32)c1 [Trametinib, trametinib dimethyl sulfoxide]
Tolerability in dogs over 13-week periods: tolerated
